Test results published in publication PMC9891691, “Chaperoning of specific tau structure by immunophilin FKBP12 regulates the neuronal resilience to extracellular stress” (Science Advances, 2023).

What was measured:
2N4R tau (hTau40, …) = molecular target: T1, 2N4R tau (hTau40, microtubule-associated protein tau) (human, UniProt P10636-8); test: NMR titration; 1H-15N HSQC of 15N-labelled 2N4R tau (45 uM) without or with unlabelled FKBP12 (90 or 225 uM); 50 mM NaP, 10 mM NaCl, 1 mM DTT, pH 6.8, 278 K, 600 MHz; conditions: both partners purified
T1 construct: human microtubule-associated protein tau, isoform 2N4R (hTau40), 441 residues as printed; UniProt ID printed as '10636-8'; Uniformly 15N-labelled (or 13C-15N-labelled) for NMR; unlabelled for the aggregation assays and for the fibrils pelleted with FKBP12; In the co-sedimentation assay the protein stood as cofactor-free amyloid fibrils; also called MAPT; monomeric tau

Y394N 2N4R tau = molecular target: T2, Y394N 2N4R tau (human, UniProt P10636-8, Y394N); test: NMR titration; 1H-15N HSQC of 15N-labelled phosphorylated 2N4R tau or Y394N 2N4R tau (30 uM) without or with unlabelled FKBP12 (60 or 150 uM); 50 mM NaP, 10 mM NaCl, 1 mM DTT, pH 6.8, 278 K, 800 MHz; conditions: both partners purified
T2 construct: human microtubule-associated protein tau, isoform 2N4R (hTau40), 441 residues as printed, with Y394N; UniProt ID printed as '10636-8'; Uniformly 15N-labelled; also called Y394N-mutant tau; source: E. coli BL21(DE3), pNG2 vector, purified

binding result (2N4R tau (hTau40, …)): binds | binding result (Y394N 2N4R tau): binds
B1: FKBP12, the 12-kDa FK506-binding protein (FKBP prolyl isomerase 1A) (enzyme)
chain: not shown
notes: human FKBP12 (FKBP prolyl isomerase 1A); Unlabelled in the NMR titrations; also called immunophilin FKBP12; source: E. coli BL21, pET28a, purified (nickel column, TEV cleavage, second nickel column, SEC); not shown: His tag, N-terminal, cleaved
